Activity data for 1 compound are collected here from US11185100B2 (priority 2014, dated 2021).

Chains of the proteins cited; added tags and fusions are not shown. Lines headed by an entry give the natural chain unless they say otherwise; changes in a name come on top.
UniProt E3UMS2: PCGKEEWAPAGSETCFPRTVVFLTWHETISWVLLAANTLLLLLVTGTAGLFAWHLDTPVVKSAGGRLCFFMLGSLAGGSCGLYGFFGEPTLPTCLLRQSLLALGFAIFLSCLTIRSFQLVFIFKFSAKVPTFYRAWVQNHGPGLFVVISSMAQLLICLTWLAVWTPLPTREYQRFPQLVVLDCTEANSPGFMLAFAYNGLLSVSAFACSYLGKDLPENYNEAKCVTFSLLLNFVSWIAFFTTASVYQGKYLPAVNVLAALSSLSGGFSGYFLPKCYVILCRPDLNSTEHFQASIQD

Where a name gives a salt, the structure may show the parent alone.

This test has as its target cat T1R1/T1R3 receptor (Felis catus, UniProt E3UMS2). The following applies: +Alanine (20 mM).

With `Nc1ncnc2c1ncn2C1OC(COP(=O)(O)OS(=O)(=O)O)C(O)C1O` (stereo not shown) [Adenosine 5′-phosphosulfate sodium salt, Adenosine 5′-phosphosulfate], the result was active.
